Experiment: Solubility in water and organic solvent
Format: physicochemical

In the case of “carboxyethylgermanium sesquioxide (GeCH2 CH2 COOH)2 O3”, the “solubility in organic solvent” value (organic solvent miscible with water, such as acetone or alcohol) is reported as “insoluble in an organic solvent at all” and the solubility in water (water) is reported as “slightly soluble in water”.
